Reference: ChEMBL document CHEMBL4396878, “Mechanisms of Specific versus Nonspecific Interactions of Aggregation-Prone Inhibitors and Attenuators” (J Med Chem, 2019)

Assays:
[1] = molecular target: T1, Rap guanine nucleotide exchange factor 3 (Homo sapiens) (UniProt O95398); experiment: Binding affinity to human EPAC1 cAMP binding domain (149 to 318 residues) at 300 uM in presence of triton X-100 by [15N-1H]HSQC spectroscopic analysis
T1 sequence (whole entry): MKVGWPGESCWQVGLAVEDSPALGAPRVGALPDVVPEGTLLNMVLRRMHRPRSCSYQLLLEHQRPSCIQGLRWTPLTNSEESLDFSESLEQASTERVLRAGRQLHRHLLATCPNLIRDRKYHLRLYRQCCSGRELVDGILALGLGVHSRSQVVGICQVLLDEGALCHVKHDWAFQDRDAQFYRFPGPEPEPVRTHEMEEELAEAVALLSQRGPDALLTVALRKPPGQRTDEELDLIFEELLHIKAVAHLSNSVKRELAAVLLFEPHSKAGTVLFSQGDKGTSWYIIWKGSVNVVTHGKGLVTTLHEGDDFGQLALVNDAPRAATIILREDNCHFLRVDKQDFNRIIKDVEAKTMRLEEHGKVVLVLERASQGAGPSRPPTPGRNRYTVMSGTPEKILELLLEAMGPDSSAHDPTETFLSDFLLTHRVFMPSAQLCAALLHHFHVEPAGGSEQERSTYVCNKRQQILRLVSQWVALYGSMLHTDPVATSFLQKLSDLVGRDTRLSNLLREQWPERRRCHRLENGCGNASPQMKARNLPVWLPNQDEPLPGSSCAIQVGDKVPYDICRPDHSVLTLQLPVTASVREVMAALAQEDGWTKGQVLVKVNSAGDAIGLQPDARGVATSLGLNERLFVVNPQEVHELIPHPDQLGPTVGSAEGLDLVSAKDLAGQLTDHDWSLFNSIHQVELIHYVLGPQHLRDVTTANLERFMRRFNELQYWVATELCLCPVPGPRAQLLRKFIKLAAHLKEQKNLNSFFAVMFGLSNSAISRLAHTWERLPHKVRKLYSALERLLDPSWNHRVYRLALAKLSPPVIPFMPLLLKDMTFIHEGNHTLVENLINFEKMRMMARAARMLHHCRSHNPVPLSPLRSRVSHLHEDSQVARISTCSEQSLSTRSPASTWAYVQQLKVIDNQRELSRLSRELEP

[2] = molecular target: T1, Rap guanine nucleotide exchange factor 3 (Homo sapiens); experiment: Binding affinity to human EPAC1 cAMP binding domain (149 to 318 residues) assessed as change in chemical shift at >150 uM using aggregate form of compound by [15N-1H]HSQC spectroscopic analysis
[3] = molecular target: T1, Rap guanine nucleotide exchange factor 3 (Homo sapiens); experiment: Binding affinity to human EPAC1 cAMP binding domain (149 to 318 residues) at 50 to 200 uM using aggregate form of compound by dynamic light scattering analysis
[4] = molecular target: T1, Rap guanine nucleotide exchange factor 3 (Homo sapiens); experiment: Binding affinity to human EPAC1 cAMP binding domain (149 to 318 residues) assessed as change in chemical shift at 100 uM in presence of triton-X 100 by 1H-1D NMR spectra analysis

Activity [1]: inactive | Activity [2]: inactive | Activity [3]: inactive | Activity [4]: Active
SMILES: C[C@@H]1CCc2c(cc(Br)c(F)c2Br)N1C=O

Active and inactive are the calls of the source. The calls are words filed in the database; no cut-off is given here.
